Measured values: patent US20070116781A1, “Hydrogen Cyanamide Pesticide Formulations” (priority 2005, published 2007)

System: weed combination
Assay: Herbicidal activity of citric acid alone, pre-emergence, covered pots
Type: in vivo
Method: The weeds used in these tests were the same as those used in Example 4, and observations were made of the effects on individual weeds as well as the weed population as a whole.
A stock solution of citric acid was made in the manner described in Example 4, and all other test parameters were likewise the same as in Example 4. Weed counts were taken from the various pots at intervals of 7, 12, and 28 days after application of the citric acid, and data analyses were performed in the same manner as Example 1.

For `O=C(O)CC(O)(CC(=O)O)C(=O)O` [C6H8O7, 2-hydroxy-1,2,3-propanetricarboxylic acid], the “Weeds Per Pot (weed combination)” value (12 d after treatment, citric acid 150 mg/kg soil) was 22.0, the “Weeds Per Pot (weed combination)” value (12 d after treatment, citric acid 250 mg/kg soil) was 22.0 and the “Weeds Per Pot (weed combination)” value (28 d after treatment, citric acid 100 mg/kg soil) was 23.5. For the same compound, the “Weeds Per Pot (weed combination)” value (28 d after treatment, citric acid 150 mg/kg soil) was 23.0 and the “Weeds Per Pot (weed combination)” value (28 d after treatment, citric acid 250 mg/kg soil) was 22.0.
